Among the data in ChEMBL document CHEMBL2384903, “Highly efficient biocompatible neuroprotectants with dual activity as antioxidants and P2Y receptor agonists” (J Med Chem, 2013) are EC50 values, retold here.

Amino acid sequences for entries named in this document (tags omitted). A change or cut given only in a name is not applied to a line headed by its entry.
UniProt P47900: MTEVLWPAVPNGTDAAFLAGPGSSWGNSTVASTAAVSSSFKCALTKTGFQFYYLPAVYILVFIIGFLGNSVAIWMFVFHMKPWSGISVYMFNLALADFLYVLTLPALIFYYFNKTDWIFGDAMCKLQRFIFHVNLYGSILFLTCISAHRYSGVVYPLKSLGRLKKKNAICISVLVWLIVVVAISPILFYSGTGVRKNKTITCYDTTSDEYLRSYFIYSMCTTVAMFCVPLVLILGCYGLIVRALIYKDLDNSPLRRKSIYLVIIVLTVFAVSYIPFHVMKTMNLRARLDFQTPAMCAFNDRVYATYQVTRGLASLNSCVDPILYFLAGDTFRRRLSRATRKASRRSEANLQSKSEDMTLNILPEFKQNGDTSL

The test has as its target P2Y purinoceptor 1 (Homo sapiens, UniProt P47900). Put plainly: Agonist activity at human GFP-tagged P2Y1R transfected in human 1321N1 cells assessed as induction of intracellular calcium mobilization by fluorescence assay. Type of test: functional, cell-based. On the technique in general: Calcium assays in cells follow changes in intracellular calcium, usually with a dye or a luminescent sensor.

Regarding `CSc1nc(N)c2ncn([C@@H]3O[C@H](COP(=O)(O)OP(=O)(O)O)[C@@H](O)[C@H]3O)c2n1`, the concentration giving a half-maximal response (EC50) was 13 nM.

In general, EC50 refers to the concentration giving half of the maximal effect.
